# AlphaSeq binding of Ab-91 heavy chain variants to a spike HR2 peptide

Source: Engelhart et al. 2022 (doi:10.1038/s41597-022-01779-4), MIT Lincoln Laboratory and A-Alpha Bio; data file from the FLAb repository.

The target is the same throughout: PDVDLGDISGINAS, from the HR2 region of SARS-CoV-2 spike.

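Variants in AAYL51 differ from the parent at up to three CDR positions; double and triple changes were sampled at random. AlphaSeq pools MATa yeast showing the antibodies with MATalpha yeast showing the peptide. After mating in shaken culture at 30 °C for 16 h, diploids were selected and their barcode pairs sequenced. The ratio of observed to expected reads was calibrated, replicate by replicate, on BCL2-family standards whose Kd was known from biolayer interferometry. Mating was done three times.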

Parent scFv Ab-91: VL joined to VH by the linker GGGGSGGGGSGGGGS. Changes lie in the heavy chain CDRs alone.
VL: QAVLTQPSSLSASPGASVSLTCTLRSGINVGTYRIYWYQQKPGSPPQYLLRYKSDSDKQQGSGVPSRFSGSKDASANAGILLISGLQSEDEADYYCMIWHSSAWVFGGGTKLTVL
VH: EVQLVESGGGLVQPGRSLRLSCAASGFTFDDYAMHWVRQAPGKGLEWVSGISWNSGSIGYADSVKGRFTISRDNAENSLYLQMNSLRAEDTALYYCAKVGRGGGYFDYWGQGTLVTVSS

Changes read parent residue, position, new residue, counted from the first residue of the VH shown.
Every variant below is changed at H35 of the VH (sequential numbering).
Each Kd is an estimate from the mating assay, the geometric mean of the replicates in which the pair was seen; lower is stronger.
"nd" means that the variant was in the library but no mating with the target was seen in any replicate; the authors take this as a sign of poor binding, and no number exists.
As a blank, each scFv also met three strains without target: over library AAYL51, 21% of these pairings were detected, typically at 34 µM and seldom below 1.8 µM.
For reference, the parent read 72 nM as the reference entry and 7.5 nM as a member of this library.

The variant G26R/H35Q/G104Q gave nd (0 of 3 replicates).
The variant M34Q/H35P/W53E gave 38 µM (1 of 3 replicates).
The variant D31Q/H35F/W53E gave 3.0 µM (1 of 3 replicates).
The variant H35V/W53A/G102L gave nd (0 of 3 replicates).
The variant H35Q/W53G gave 500 µM (2 of 3 replicates).
The variant H35M/D62Y gave nd (0 of 3 replicates).
The variant H35Y/S55H/G59R gave nd (0 of 3 replicates).
The variant H35W/S63W/G104T gave 77 µM (3 of 3 replicates).
The variant H35V/Y105K/Y108A gave nd (0 of 3 replicates).
The variant G26W/H35N/G50A gave nd (0 of 3 replicates).
The variant F29K/H35N/G59S gave nd (0 of 3 replicates).
The variant H35A/A61T gave nd (0 of 3 replicates).
The variant H35D/D62L/Y108F gave nd (0 of 3 replicates).
The variant M34S/H35N/F106V gave nd (0 of 3 replicates).
The variant H35L/Y105W/D107C gave 450 µM (2 of 3 replicates).
The variant H35C/I51E/S52A gave nd (0 of 3 replicates).
The variant M34N/H35N/V64H gave 270 µM (1 of 3 replicates).
The variant D31I/H35W/G102I gave 4.8 µM (1 of 3 replicates).
The variant H35L/G50V gave 81 µM (1 of 3 replicates).
The variant H35R/W53Q/S55R gave 490 µM (1 of 3 replicates).
The variant H35Y/A61Q gave nd (0 of 3 replicates).
The variant H35C/S52Y gave nd (0 of 3 replicates).
The variant F29T/H35S/S57N gave 57 µM (1 of 3 replicates).
The variant G26D/H35G/K65G gave nd (0 of 3 replicates).
The variant H35M/G50M/G100M gave nd (0 of 3 replicates).
The variant H35K/S63E gave nd (0 of 3 replicates).
The variant H35E/G104Q/F106I gave 23 µM (1 of 3 replicates).
The variant D31V/Y32D/H35V gave 78 µM (1 of 3 replicates).
The variant H35A/N54M gave nd (0 of 3 replicates).

Again, the first 3 entries without any signal:

The variant G26R/H35Q/G104Q showed nd (0 of 3 replicates).
The variant H35V/W53A/G102L showed nd (0 of 3 replicates).
The variant H35M/D62Y showed nd (0 of 3 replicates).